Legend:
[1] = test system: CD8^+ T cells and CD4^+ Treg cells; test: Immune cell population in CT26.WT tumor tissue (flow cytometry); format: in vivo, mouse; settings: 5th day, 2.0 mg/kg IV QD × 5
Experimental: A cell suspension of 2×10^5/0.1 mL/mouse CT26.WT was subcutaneously inoculated into right backs of the mice. […] On the 5th day, tumor tissue samples of various groups were collected for flow cytometry detection of changes in cell populations of CD8^+ T cells and CD4^+ Treg cells.

[2] = In-vivo pharmacokinetic study in mouse; settings: female C57 mice, single intravenous injection 1 mg/kg, serum, average value n=5
CTLL-2 cells = test: STAT5 phosphorylation assay (CTLL-2 cells); format: cell-based; settings: mouse CTLL-2 cells containing IL-2Rαβγ; stimulated 10 minutes at 37° C.; pSTAT5/β-actin western blot
From the text: In this method, two cell lines were adopted, wherein mouse CTLL-2 cells were a cell line containing IL-2Rαβγ, and human YT cells were a cell line containing IL-2Rβγ, and rhIL-2 activated the JAK-STAT signal pathway by binding with IL-2R on the cell surface. Different modification sites of various samples had different relative activities to the two kinds of cells. The lower the percentage change of EC50 ratio of YT cells/CTLL-2 cells was, the better the effect of promoting the immune function of the samples was, and on the contrary, the better the effect of inhibiting the immune function was.
The specific process was as follows: the mouse CTLL-2 cells (purchased from American Type Culture Collection) and the human YT cells were cultured in their own media (CTLL-2 cell medium: RPMI 1640+10% FBS+400 IU/mL rhIL-2, 2 mM L-glutamine and 1 mM sodium pyruvate; and YT cell medium: RPMI 1640+10% FBS+1 mm Non-Essential Amino Acids Solution (purchased from Gibco, product catalog number 11140050)) to a sufficient amount at condition of 37° C. and 5% carbon dioxide, and starved for 4 hours before detection, and then the cell density was adjusted to be 1×10^6 cells/mL for later use. […]

STAT5 phosphorylation assay (CTLL-2 cells) EC50 (CTLL-2 cells) | Substance | CD8^+ T cells/CD4^+ Treg [1] | Percentage of CD4^+ Treg in leucocytes [1] | Percentage of CD8^+ T cells in leucocytes [1] | AUC0-t [2] | CL [2] | Cmax [2] | Tmax [2] | Vz [2]
 | Quanqi rhIL-2: commercial rhIL-2 purchased from Shandong Quangang Pharmaceutical Co., Ltd., positive control drug | 1.3 | 6.7% | 8.5% | 2445 ng·h/mL | 6.82 mL/min/kg | 6197 ng/mL | 4.98 min | 0.455 L/kg
0.12 ng/mL | Reference: reference rhIL-2 purchased from Beijing Solarbio Science & Technology Co., Ltd., catalog number P00020 |  |  |  |  |  |  |  | 
